Measurements reported in patent US10702572B2, “Methods and compounds to suppress viral genome release and packaging” (Carnegie Mellon University, priority 2015, dated 2020).

Key:
[1] = oral (rat); cited from earlier work
LD50 in rat = conditions: oral (rat), conversion in brackets

Cl.Cl.Cl.Cl.NCCCNCCCCNCCCN [spermine tetrahydrochloride]
LD50 [1]: 129 mg/kg | LD50 as concentration (LD50 in rat): ~0.4 mM
